What was measured:
EP3 receptor [1] = biological target: T1, EP3 receptor (Homo sapiens, UniProt P43115); experiment: [3H]-PGE2 binding assay (EP3 competition binding)
T1 construct: purchased Millipore HTS092M
T1 sequence (P43115 1-390): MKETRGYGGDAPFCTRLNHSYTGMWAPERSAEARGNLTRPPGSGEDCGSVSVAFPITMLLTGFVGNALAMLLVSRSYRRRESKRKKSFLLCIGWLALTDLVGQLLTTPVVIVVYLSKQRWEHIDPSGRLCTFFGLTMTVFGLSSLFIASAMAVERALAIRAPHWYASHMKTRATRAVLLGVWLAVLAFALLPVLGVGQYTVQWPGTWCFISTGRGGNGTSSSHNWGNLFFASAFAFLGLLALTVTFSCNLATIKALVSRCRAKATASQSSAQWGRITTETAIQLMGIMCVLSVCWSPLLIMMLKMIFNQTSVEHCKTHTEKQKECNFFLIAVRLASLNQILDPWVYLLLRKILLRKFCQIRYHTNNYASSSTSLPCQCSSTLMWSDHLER
Protocol: EP3 competition binding was determined using the following materials and experimental conditions:
Beads=Perkin Elmer RPNQ0001
EP3 membrane=Millipore HTS092M
Membrane concentration=2 μg/well
Beads concentration=0.25 mg/well
[3H]-PGE2=2 nM; DMSO—0.1%
Binding buffer=50 mM Tris, 10 mM MgCl2, 1 mM • EDTA, PH 7.4.
The binding buffer was removed from refrigeration (@ 4° C.) and allowed to warm to room temperature. Test compound (@ stock concentration of […] in DMSO) was serial dilutes (1:3) with 100% DMSO using Echo plate. Diluted test compound (30 nL) was dispensed to the 384-well assay plate (using Echo 550 Labcyte System). To each well was then added assay buffer (5 μl) and each well was spun. Beads were weighed out, dissolved in assay buffer to a concentration of 0.25 mg/15 μl. Original membrane was diluted with assay buffer to a concentration of 2 μg/5 μl. […] To each test well were then added diluted [3H]-PGE2 (5 μl), diluted membrane (5 μl), and dissolved beads (15 μl). The plate was equilibrated at room temperature on a plate shaker for 2 hours and then read with a TOPCOUNT scintillation plate reader. Results were analyzed using a Prism program with non-linear regression, one-site fit for Ki.

EP3 receptor [2] = biological target: T1, EP3 receptor; experiment: CHO cell cAMP assay (forskolin and sulprostone stimulated, HTRF); type: cell-based; conditions: CHO cells; sulprostone 700 nM (EC80) and FSK 2 μM (EC70), 37° C. for 30 minutes; read-out: CHO_cAMP IC50
Protocol: For detection, a homogeneous competitive immunoassay (Time Resolved Fluorescence Energy Transfer (hTR-FRET)) was used.
Cells (6K cells per well) were plated in Poly-D-Lysine coated plates the day before the assay was to be run and were incubated at 37° C. […] At the start of the assay the buffer was removed from the cells and replaced with buffer containing test compound(s). Sulprostone at an EC80 dose (700 nM) and FSK at an EC70 dose (2 μM) were added to initiate the reaction (37° C. for 30 minutes).
FSK increases cAMP production and sulprostone decreases cAMP production produced by FSK. In this assay, EP3 antagonists will increase the cAMP to the level of cAMP generated by FSK alone.
Approximately one hour later the plates were read on an Envision (Perkin Elmer) in HTRF mode.
NSP, NSN, NSsample were converted to nM cAMP using the following equation: […]
IC50 values were determined from a […] (Hill equation) of a single 11-point compound dosing.

With CCn1ncc2c(F)cc(-c3ccc(C(/C=C4\OC(=O)NC4=O)C4CCCC4)c(=O)[nH]3)cc21 (centres unmarked) [compound 130, 5-(2-cyclopentyl-2-(6-(1-ethyl-4-fluoro-1H-indazol-6-yl)-2-oxo-1,2-dihydropyridin-3-yl)ethylidene)-oxazolidine-2,4-dione] the Ki (EP3 receptor [1]) was 12 nM and the IC50 (EP3 receptor [2]) was 72 nM.

From US10336701B2, “Pyridin-2-one derivatives of formula (II) useful as EP3 receptor antagonists” (Janssen Pharmaceutica NV, priority 2017, dated 2019)
